By UniProt entry, the sequences of proteins in these tests, tags left out. Residues count along the entry.
UniProt Q9NYK1, 27-1049 limits assumed: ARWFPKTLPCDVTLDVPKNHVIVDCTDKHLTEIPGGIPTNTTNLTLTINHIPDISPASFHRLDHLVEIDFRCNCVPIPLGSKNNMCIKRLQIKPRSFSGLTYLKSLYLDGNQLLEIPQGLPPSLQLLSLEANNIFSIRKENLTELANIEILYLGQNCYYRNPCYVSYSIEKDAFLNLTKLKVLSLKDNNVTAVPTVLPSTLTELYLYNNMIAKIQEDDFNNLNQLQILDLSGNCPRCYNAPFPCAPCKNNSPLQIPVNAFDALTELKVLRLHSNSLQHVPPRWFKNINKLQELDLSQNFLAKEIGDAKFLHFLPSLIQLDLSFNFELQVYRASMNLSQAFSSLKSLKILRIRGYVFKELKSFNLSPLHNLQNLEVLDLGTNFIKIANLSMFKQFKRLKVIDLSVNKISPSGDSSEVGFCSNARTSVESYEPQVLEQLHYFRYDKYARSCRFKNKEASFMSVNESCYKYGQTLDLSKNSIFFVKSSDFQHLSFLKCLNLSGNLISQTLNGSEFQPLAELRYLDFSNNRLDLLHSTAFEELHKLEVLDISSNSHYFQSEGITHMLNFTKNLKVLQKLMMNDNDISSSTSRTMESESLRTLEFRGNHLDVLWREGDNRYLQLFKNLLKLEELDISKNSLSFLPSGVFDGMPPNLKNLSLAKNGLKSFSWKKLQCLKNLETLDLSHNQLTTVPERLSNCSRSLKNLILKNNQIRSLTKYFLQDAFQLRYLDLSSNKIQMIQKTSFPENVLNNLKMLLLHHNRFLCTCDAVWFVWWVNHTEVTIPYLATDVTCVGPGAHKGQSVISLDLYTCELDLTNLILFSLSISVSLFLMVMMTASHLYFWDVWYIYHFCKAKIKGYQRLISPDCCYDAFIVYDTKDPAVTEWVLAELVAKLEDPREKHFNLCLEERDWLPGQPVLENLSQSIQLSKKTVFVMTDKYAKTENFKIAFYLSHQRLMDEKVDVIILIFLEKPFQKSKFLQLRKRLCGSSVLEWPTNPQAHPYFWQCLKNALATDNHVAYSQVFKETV
UniProt Q9NR96, 26-1032 limits assumed: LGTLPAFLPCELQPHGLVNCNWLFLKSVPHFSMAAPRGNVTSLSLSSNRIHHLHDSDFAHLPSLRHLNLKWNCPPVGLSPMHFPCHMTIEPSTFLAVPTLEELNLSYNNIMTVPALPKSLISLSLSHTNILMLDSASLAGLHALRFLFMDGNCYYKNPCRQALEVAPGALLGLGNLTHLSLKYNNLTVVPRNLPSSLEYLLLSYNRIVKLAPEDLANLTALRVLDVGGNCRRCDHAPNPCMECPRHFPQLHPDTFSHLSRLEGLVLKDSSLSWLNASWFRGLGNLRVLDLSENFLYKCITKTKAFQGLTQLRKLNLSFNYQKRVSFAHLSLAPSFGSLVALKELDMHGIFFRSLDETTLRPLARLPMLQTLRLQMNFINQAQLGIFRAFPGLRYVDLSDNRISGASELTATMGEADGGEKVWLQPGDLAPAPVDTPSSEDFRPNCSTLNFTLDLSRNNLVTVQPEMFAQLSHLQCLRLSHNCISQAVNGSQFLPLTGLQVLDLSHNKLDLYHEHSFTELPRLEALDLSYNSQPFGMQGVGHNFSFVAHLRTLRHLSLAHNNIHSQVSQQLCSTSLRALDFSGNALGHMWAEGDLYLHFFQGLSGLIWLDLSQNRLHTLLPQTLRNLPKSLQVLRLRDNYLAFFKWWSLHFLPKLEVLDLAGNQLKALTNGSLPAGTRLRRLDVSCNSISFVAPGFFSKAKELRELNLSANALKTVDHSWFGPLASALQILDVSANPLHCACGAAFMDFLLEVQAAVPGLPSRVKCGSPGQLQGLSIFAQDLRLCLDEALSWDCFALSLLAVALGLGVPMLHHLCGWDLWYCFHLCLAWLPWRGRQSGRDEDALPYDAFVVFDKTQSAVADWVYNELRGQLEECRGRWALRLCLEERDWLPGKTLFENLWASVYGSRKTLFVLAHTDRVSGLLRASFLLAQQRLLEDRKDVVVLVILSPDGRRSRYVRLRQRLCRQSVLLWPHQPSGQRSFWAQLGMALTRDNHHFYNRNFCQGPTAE
UniProt Q9NR97, 27-1041 limits assumed: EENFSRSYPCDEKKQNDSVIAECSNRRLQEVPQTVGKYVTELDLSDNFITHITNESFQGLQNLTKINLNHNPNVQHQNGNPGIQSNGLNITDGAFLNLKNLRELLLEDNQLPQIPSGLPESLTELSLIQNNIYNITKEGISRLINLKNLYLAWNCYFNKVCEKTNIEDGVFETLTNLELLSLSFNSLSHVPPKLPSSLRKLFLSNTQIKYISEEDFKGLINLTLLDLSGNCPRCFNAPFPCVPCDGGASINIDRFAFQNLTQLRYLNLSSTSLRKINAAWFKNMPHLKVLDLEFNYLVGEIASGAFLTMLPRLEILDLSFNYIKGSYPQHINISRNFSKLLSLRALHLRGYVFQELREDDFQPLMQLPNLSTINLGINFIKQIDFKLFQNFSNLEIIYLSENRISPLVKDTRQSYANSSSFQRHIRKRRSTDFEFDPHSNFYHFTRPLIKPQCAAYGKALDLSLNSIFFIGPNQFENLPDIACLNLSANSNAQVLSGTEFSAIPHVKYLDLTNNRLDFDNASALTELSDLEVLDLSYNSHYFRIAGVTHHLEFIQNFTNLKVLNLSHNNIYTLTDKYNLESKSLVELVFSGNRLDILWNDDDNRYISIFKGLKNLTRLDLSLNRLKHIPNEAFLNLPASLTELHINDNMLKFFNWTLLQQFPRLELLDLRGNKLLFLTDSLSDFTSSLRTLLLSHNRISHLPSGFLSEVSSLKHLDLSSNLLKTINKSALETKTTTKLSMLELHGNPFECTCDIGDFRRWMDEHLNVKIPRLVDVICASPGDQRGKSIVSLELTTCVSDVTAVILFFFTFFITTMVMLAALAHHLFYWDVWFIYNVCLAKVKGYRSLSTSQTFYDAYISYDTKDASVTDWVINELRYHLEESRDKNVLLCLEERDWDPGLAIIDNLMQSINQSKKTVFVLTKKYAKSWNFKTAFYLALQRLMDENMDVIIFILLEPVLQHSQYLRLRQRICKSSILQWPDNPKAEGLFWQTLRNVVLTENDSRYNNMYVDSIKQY

According to patent publication US20100160314A1, “Small Molecule Inhibitors of Toll-Like Receptor 9” (priority 2006, published 2010):

Key:
[1] = molecular target: TLR7 (Homo sapiens, UniProt Q9NYK1); experiment: Human PBMC, IFN-α readout using ORN R-1362+DOTAP (TLR7 antagonism); settings: read-out: TLR7 IC50, Experimental; in vitro testing as described in Example 63
Text: (§1) Peripheral blood mononuclear cell (PBMC) buffy coat preparations from healthy male and female human donors were obtained from the Institute for Hemostaseology and Transfusion Medicine of the University of Düsseldorf (Germany).
(§2) PBMC were purified by centrifugation over Ficoll-Hypaque (Sigma). Purified PBMC were washed twice with 1×PBS and resuspended in RPMI 1640 culture medium supplemented with 5% (v/v) heat-inactivated human AB serum (BioWhittaker, Belgium) or 10% (v/v) heat-inactivated fetal calf serum (FCS), 1.5 mM L-glutamine, 100 U/ml penicillin and […] streptomycin (all from Sigma, Deisenhofen, Germany).
(§3) Freshly isolated PBMC were resuspended at a concentration of 3×10^6/ml to 5×10^6/ml with RPMI 1640 culture medium and added to 96-well round-bottomed plates (150 μl/well) which had previously received nothing or selected concentrations (typically 10 μM-0.085 nM as 7-fold serial dilutions) of small molecule. To assay antagonist reaction for TLR9, 1 μM CpG oligodeoxynucleotide (ODN) 2395 ([…]; SEQ ID NO:3) was added to wells containing small molecules. To assay antagonist reaction for TLR7 and TLR8, 0.5 μM oligoribonucleotide (ORN) R-1362 ([…]; SEQ ID NO:4) complexed to 5 μg/ml DOTAP was added to wells containing small molecules. To calculate response to CpG ODN 2395 alone or ORN R-1362+DOTAP alone, wells without small molecules were stimulated with CpG ODN 2395 or ORN R-1362+DOTAP.
(§4) Cells were cultured in a humidified incubator at 37° C. for 16 h. Culture supernatants were then collected and, if not used immediately, frozen at −20° C. until required.
(§5) Amounts of cytokines in the supernatants were assessed using enzyme-linked immunosorbent assays (ELISA) specific for IFN-α or TNF-α using commercially available antibodies or kits from BD Pharmingen or Diaclone, respectively. IFN-α readout using CpG 2395 was used to measure TLR9 response. IFN-α readout using ORN R-1362+DOTAP was used to measure TLR7 response. TNF-α release using R-1362 complexed to DOTAP was used to measure TLR8-mediated immune response.

[2] = molecular target: TLR9 (Homo sapiens, UniProt Q9NR96); experiment: Human PBMC, IFN-α readout using CpG ODN 2395 (TLR9 antagonism); settings: read-out: TLR9 IC50, Experimental; in vitro testing as described in Example 63
Text: as §1, §2, §3, §4, §5

[3] = molecular target: TLR8 (Homo sapiens, UniProt Q9NR97); experiment: Human PBMC, TNF-α release using ORN R-1362+DOTAP (TLR8 antagonism); settings: read-out: TLR8 IC50, Experimental; in vitro testing as described in Example 63
Text: as §1, §2
Freshly isolated PBMC were resuspended at a concentration of 3×10^6/ml to 5×10^6/ml with RPMI 1640 culture medium and added to 96-well round-bottomed plates (150 μl/well) which had previously received nothing or selected concentrations (typically 10 μM-0.085 nM as 7-fold serial dilutions) of small molecule. […]
as §5, with “TNF-α release using R-1362 complexed to DOTAP was used to measure TLR8-mediated immune response.” left out

SMILES | IC50 [1] | IC50 [2] | IC50 [3]
CN1CCN(c2nc(-c3ccccc3)nc3ccc(NCCN4CCOCC4)cc23)CC1 | 170 nM | 53 nM | 
CN1CCN(c2nc(NCCN3CCOCC3)c3cc(-c4ccccc4)ccc3n2)CC1 | 630 nM | 100 nM | 500 nM
CN1CCN(c2ccc3c(NCCN4CCOCC4)nc(-c4ccccc4)nc3c2)CC1 | 24 nM | 38 nM | 29 nM
